The record followed here is PMC7253423, “Quassinoid analogs with enhanced efficacy for treatment of hematologic malignancies target the PI3Kγ isoform” (Communications Biology, 2020).

The structures appear in SMILES notation. Values joined by “and” are separate entries in the source; they are usually repeats but may differ in a detail not shown here. Equal values may be shown once.

In series [1] the test system is PBMC. Nature of the series: Cytotoxicity, cell viability assay in normal cells. The format is cell-based, human. The text has this:
(§1) Human peripheral blood mononuclear cells (PBMCs), normal T-cells and B-cells were provided by the University of Pennsylvania Human Immunology Core (HIC), and Patient-derived xenografts (PDXs) were obtained from Fox Chase Cancer Center (FCCC). These samples were from different unidentified and healthy donors with written, informed consent. All the procedures were approved by the Institutional Review Board (IRB) and conducted according to the declarations of Helsinki protocols.
(§2) 5000 cells as indicated were cultured in 96-well plate with 100 μl of media. On the next day, Brusatol or associated analogs were added once to the cells without media change. After treatment, the cells were incubated with 100 μl buffer for 10 min at room temperature following the instructions of CellTiter-Glo kit (Promega, Madison, WI). Luminescence was detected using a multi-mode reader Cytation 5 (BioTek, Winooski, VT). Brusatol or its analogs are dissolved in 100% ethanol and diluted in 1 × PBS for treatment. Two independent experiments done in duplicates were performed.

The test system of series [2] is SU-DHL-4 cells. Description: Cell viability assay (CellTiter-Glo luminescence). The format is cell-based, human. As to conditions: for Relative cell viability: SU-DHL-4, relative to Control, Fig 1d / Fig 5a. The method, then:
as §2

Series [3] concerns MOLT-4 cells. Nature of the series: Cell viability assay (CellTiter-Glo luminescence). It is filed as cell-based, human. As to conditions: MOLT-4, relative to Control, Fig 1d / Fig 5a. The method, then: as §2
Series [4] deals with WL-1 cells. Description: Cell viability assay (CellTiter-Glo luminescence). The format is cell-based, human. The protocol:
as §2
(ATP-based viability assays read luminescence as a measure of living cells.)

The nature of series [5]: Body weight of xenograft mice. The format is in vivo, NOD/SCID mice. As to conditions: individual mice, Fig S3i. The method, then: Six-week-old male NOD.CB17-Prkdc^scid/J (NOD/SCID) mice (Jackson Labs, Bar Harbor, ME, USA) were used as the human-in-mouse xeno-transplantation model. MOLM14 cells (1 × 10^7 cells) were injected into the subcutaneous space on the left flank of the mice. Once xenografts reached a size of 100 mm^3, Brusatol and analogs (#14, #15, #26, #31) at 2 mg/kg body weight or PBS were injected intraperitoneally three times per week. Body weight and tumor size were monitored before every injection. After treatment for 2 weeks, the mice were euthanized by CO2 inhalation and the tumors were carefully excised. The tumor volume (mm^3) was measured and calculated using the formula (a × b × b)/2 (a, the largest diameter of two measurements; b, the smallest diameter of two measurements).

Series [6] relates to LCL1 cells. Description: Cell viability assay (CellTiter-Glo luminescence). The format is cell-based, human. The method, then: On the next day, Brusatol or associated analogs were added once to the cells without media change. After treatment, the cells were incubated with 100 μl buffer for 10 min at room temperature following the instructions of CellTiter-Glo kit (Promega, Madison, WI). Luminescence was detected using a multi-mode reader Cytation 5 (BioTek, Winooski, VT). Brusatol or its analogs are dissolved in 100% ethanol and diluted in 1 × PBS for treatment. Two independent experiments done in duplicates were performed.

For series [7], the system named is BJAB cells. Nature of the series: Cell viability assay (CellTiter-Glo luminescence). As to conditions: relative to Control, Fig 1d / Fig 5a. It is filed as cell-based, human. The protocol: as §2
For series [8], the system named is normal T-cells. Nature of the series: Cytotoxicity, cell viability assay in normal cells. The format is cell-based, human. As to conditions: fraction of 0 μM control.
Source text: as §1, §2

For series [9], the system named is LCL2 cells. Nature of the series: Cell viability assay (CellTiter-Glo luminescence). The format is cell-based, human. As to conditions: LCL2, relative to Control, Fig 1d / Fig 5a. The protocol: as §2
Series [10] relates to SU-DHL-6 cells. Description: Cell viability assay (CellTiter-Glo luminescence). It is filed as cell-based, human. As to conditions: SU-DHL-6, relative to Control, Fig 1d / Fig 5a. The method, then:
as §2

For series [11], the system named is SU-DHL-10 cells. Description: Cell viability assay (CellTiter-Glo luminescence). The format is cell-based, human. As to conditions: SU-DHL-10, relative to Control, Fig 1d / Fig 5a. The protocol: as §2
Series [12] has as its system Raji cells. Description: Cell viability assay (CellTiter-Glo luminescence). The format is cell-based, human. The method, then: as §2
In series [13] the test system is MOLM14 cells. Description: Cell viability assay (CellTiter-Glo luminescence). It is filed as cell-based, human. As to conditions: human. The method, then: as §2
Series [14] concerns RPMI-8226 cells. Nature of the series: Cell viability assay (CellTiter-Glo luminescence). It is filed as cell-based, human. As to conditions: human. The method, then: as §2
The mark [15] stands for this setting: WL-1, relative to Control, Fig 1d / Fig 5a.
Setting [16] is: LCL1, relative to Control, Fig 1d / Fig 5a.
The mark [17] stands for this setting: PBMC, Con. 0.015625 μM, fraction of 0 μM control.

Take `COC(=O)C12OCC34C(CC5C(C)=C(OC(=O)C6CCCN6)C(=O)CC5(C)C3C(O)C1O)OC(=O)C(OC(=O)C=C(C)C)C24` (stereo not shown) [#31]: in series [1] (Con. 0.0025 μM, Fig 5c), the “Cell viability, raw luminescence reading” value turned out to be 20227. Further, the Relative cell viability is reported as 0.1148 in series [2], 0.06412 in [3], 0.1971 in series [4] (setting [15]) and 0.2432 in [6] (setting [16]). Also, the Body weight in series [5] (0d) is 25.51 and 24.78; in [5] (4d, in g (unit assumed)) it was 26.4; in series [5] (6d), 28.13 and 26.39 and 26.17; in [5] (8d), 27.05 and 26.22; in series [5] (10d, in g (unit assumed)) it was 28.88; in [5] (12d), 28.28 and 26.42.

With `COC(=O)C12OCC34C(CC5C(C)=C(OC(=O)C(N)Cc6ccccc6)C(=O)CC5(C)C3C(O)C1O)OC(=O)C(OC(=O)C=C(C)C)C24` (stereo not shown) [#14], the Relative cell viability in [7] is listed as 0.4209; in series [4] (setting [15]) it was 0.1587; in series [6] (setting [16]) it was 0.1677. In addition, the Body weight in series [5] (0d) was 28.7; in series [5] (2d, in g (unit assumed)), 29.48 and 27.25 and 26.35; in series [5] (4d, in g (unit assumed)) it was 27.19 and 27.16 and 27.13 (2×); in series [5] (6d), 28.06 and 28.8 and 27.88 and 27.13; in series [5] (10d, in g (unit assumed)), 28.49; in [5] (12d), 29.2.

Regarding `COC(=O)C12OCC34C(CC5C(C)=C(OC(=O)CNC(=O)OC(C)(C)C)C(=O)CC5(C)C3C(O)C1O)OC(=O)C(OC(=O)C=C(C)C)C24` (stereo not shown) [#15], the “relative cell viability (Fig 6a), replicates” value in [1] (setting [17]) is 0.8377; in series [1] (PBMC, Con. 0.0625 μM, fraction of 0 μM control) it was 0.8032. Moreover, the “relative cell viability (Fig 6b), replicates” value in series [8] (Con. 0.000244141 μM) was 1.007; in series [8] (Con. 0.000976563 μM) it was 0.9626; in [8] (Con. 0.00390625 μM), 0.8377 and 1.06; in [8] (Con. 1 μM) it was 0.7967. Also, the “relative cell viability (Fig 6d), replicates” value in [2] (SU-DHL-4, Con. 0.00244141 μM, fraction of 0 μM control) is 1.071; in series [2] (SU-DHL-4, Con. 10 μM, fraction of 0 μM control), 0.04515. For the same molecule, the Relative cell viability is 0.0482 in series [2]; 0.0408 in series [3]; 0.2738 in series [9]; 0.1931 in [4] (setting [15]); 0.09359 and 0.1752 in series [10]; 0.0368 in series [11]. Besides, the Relative cell viability in series [12] (Raji, relative to Control, Fig 1d / Fig 5a) came to 0.2778; in series [6] (setting [16]), 0.206. Further, the “relative cell viability (Fig 6f), replicates” value stood at 1.022 in series [12] (Raji, Con. 0.00244141 μM, fraction of 0 μM control) and 1.151 in series [12] (Raji, Con. 0.00976562 μM, fraction of 0 μM control). The Body weight in [5] (0d) is 22.66; in [5] (2d, in g (unit assumed)), 22.71; in series [5] (4d, in g (unit assumed)), 25.54; in series [5] (6d), 24.51 and 24.49 and 25.15; in series [5] (10d, in g (unit assumed)) it was 25.1 and 26.52; in series [5] (12d), 25.08 and 25.51.

Consider `COc1c(OCCCN2CCOCC2)ccc2c1N=C(NC(=O)c1cnc(N)nc1)N1CCN=C21` [Copanlisib], for which the “relative cell viability (Fig 6a), replicates” value in series [1] (PBMC, Con. 0.000244141 μM, fraction of 0 μM control) amounted to 0.9767; in series [1] (setting [17]) it was 0.797. For the same molecule, the “relative cell viability (Fig 6b), replicates” value was 1.11 in series [8] (Con. 0.000976563 μM) and 0.9874 in series [8] (Con. 0.015625 μM). Further, in series [2] (human, 0.00244141 μM), the “relative cell viability (Fig 6d), replicates” value was 1.148. For the same molecule, the “relative cell viability (Fig 6f), replicates” value is given as 1.169 in [12] (human, 0.00976562 μM) and 0.1392 in series [12] (human, 10 μM). For the same molecule, the “relative cell viability (Fig 6e), replicates” value stood at 0.8364 in series [13] (0.00244141 μM) and 0.2034 in [13] (2.5 μM).

On to `COC(=O)C12OCC34C(CC5C(C)=C(OC(=O)CC(C)N)C(=O)CC5(C)C3C(O)C1O)OC(=O)C(OC(=O)C=C(C)C)C24` (stereo not shown) [#26], for which the “relative cell viability (Fig 6a), replicates” value in [1] (human, 0.000244141 μM) was found to be 0.9372. Also, the Relative cell viability in series [14] is 0.1207; in series [4] (human), 0.2025; in series [6] (human), 0.2229. The “relative cell viability (Fig 6f), replicates” value in series [12] (human, 0.00244141 μM) came out at 1.044.
